# Test results reported in patent US10202375B2, “N-pyridinyl acetamide derivatives as Wnt signalling pathway inhibitors” (Redx Pharma PLC, priority 2014, dated 2019).
# System: Wnt pathway (L-Wnt cells producing murine Wnt-3a; Leading Light Wnt Reporter Cells)
# Experiment: Dual-Cell β-Catenin Reporter Assay
# Type: cell-based
# Conditions: Mus musculus, luciferase signal reduced to 50% of DMSO control; category symbols
# Procedure: Dual-Cell β-Catenin Reporter Assay
# Mouse L cells transfected to constitutively produce biologically active murine Wnt-3a, referred to as L-Wnt cells, were purchased from the American Type Culture Collection, ATCC, Manassas, Va. (ATCC). These cells were cultured in DMEM supplemented with 10% FCS (Gibco/Invitrogen, Carlsbad, Calif.), 1% geneticin and 1% sodium pyruvate (Sigma) at 37° C. with 5% CO2. The cells were seeded into 96 well plates and treated with serial dilutions of compound diluted to 0.1% DMSO concentration. After 24 hours, cell supernatants were transferred to a 96 well plate previously seeded with Leading Light® Wnt Reporter Cells, stably transfected with a luciferase gene under control of Wnt pathway response elements. After a further 24 hours, cells are treated with One-glo luciferase assay system (Promega, Madison, Wis.) and the luminescent signal read by envision.
row,Structure (SMILES),IC50
1,"Cc1cc(-c2ccnc3c2ccn3CC(=O)Nc2ccc(-c3cnccn3)cn2)ccn1 [ID No. 27, 2-[4-(2-methyl-4-pyridyl)pyrrolo[2,3-b]pyridin-1-yl]-N-(5-pyrazin-2-yl-2-pyridyl)acetamide]",< 1 nM
2,"Cc1cc(-c2ncnc3c2ccn3CC(=O)Nc2ccc(-c3cnccn3)cn2)ccn1 [compound 26, 2-[4-(2-methyl-4-pyridyl)pyrrolo[2,3-d]pyrimidin-7-yl]-N-(5-pyrazin-2-yl-2-pyridyl)acetamide]",< 1 nM
